Values quoted from earlier work, collected in patent US12220419B2, “BCL-2 inhibitors” (Newave Pharmaceutical Inc., priority 2018, dated 2025).

Sequences of proteins named here, by UniProt entry; tags and fusion partners are left off.
UniProt P10415, whole entry: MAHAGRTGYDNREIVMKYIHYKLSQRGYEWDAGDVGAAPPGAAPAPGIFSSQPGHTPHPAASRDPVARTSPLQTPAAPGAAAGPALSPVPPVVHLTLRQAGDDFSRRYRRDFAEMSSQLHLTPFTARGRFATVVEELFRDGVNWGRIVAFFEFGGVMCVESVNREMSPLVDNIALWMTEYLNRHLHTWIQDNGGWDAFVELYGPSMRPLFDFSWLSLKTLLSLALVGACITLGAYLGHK

Target: BCL-2 (Homo sapiens (Human), UniProt P10415)
Details: cited from earlier work

CC1(C)CCC(c2ccc(Cl)cc2)=C(CN2CCN(c3ccc(C(=O)NS(=O)(=O)c4ccc(N[C@H](CCN5CCOCC5)CSc5ccccc5)c(S(=O)(=O)C(F)(F)F)c4)cc3)CC2)C1 [ABT-263]
Ki: ≤ 1 nM
